# Assay results as given in patent US20220187281A1, “METHODS AND SYSTEMS FOR EVALUATION OF CELL SAMPLES” (priority 2019, published 2022).
# Tested on: CD3+, CD4+, and CD8+ cells in MMTV-PyMT tumor slices
# Test: Flow cytometry of resident immune cells in MMTV-PyMT tumor slice cultures
# Type: cell-based, mouse
# Conditions: 4 days ex vivo, addition of IL2
# Method: A flow cytometry analysis of spontaneous MMTV-PyMT murine breast tumor slice cultures analyzed with anti-CD45, CD3, CD8 and CD4 antibodies was performed to assess the long-term maintenance of resident immune cells in tumor slices subject to the culturing conditions described herein. […] At 4 days ex vivo, the MMTV-PyMT tumor slices were dissociated using a cocktail containing a 9:1 ratio of accutase:collagenase+hyaloruronidase. Dissociated single cells were washed and resuspended in blocking antibody (antiCD16/32) and diluted in 2% BSA/PBS for 30 minutes on ice. Cells were then washed and resuspended in 45 μl of antibody cocktail containing anti-CD45, CD3, CD8, and CD4 antibodies (PE-CY7, PE, APC, FITC, BV650, and BV711) in Brilliant Violet staining buffer and incubated on ice for 30 minutes. After incubation, the cells were washed and stained with fixable viability dye for 30 minutes at room temperature. After staining, the cells were washed and fixed in ICfix solution and then analyzed on a LSRII flow cytometer.
substance,measurement,value
IL2: IL2 added to tumor slice cultures,immune cell frequency with respect to parental tumor frequency,increased
